Results published in US10456407B2, “Combination therapy for treating cancer” (Epizyme, Inc., priority 2015, dated 2019).

Tests used:
SU-DHL6 xenografts = test: SU-DHL6 (EZH2 Y646N) lymphoma xenograft study; assay type: in vivo, mice; settings: 28 days
SU-DHL10 xenografts = test: SU-DHL10 (EZH2 Y646F) lymphoma xenograft study; assay type: in vivo, mice

CCN(c1cc(-c2ccc(CN3CCOCC3)cc2)cc(C(=O)NCc2c(C)cc(C)[nH]c2=O)c1C)C1CCOCC1 [Compound 44]
tumor growth inhibition / regression (SU-DHL6 xenografts): significant tumor growth inhibition was not observed | tumor growth inhibition / regression (SU-DHL10 xenografts; 28 days): Tumor growth inhibition was observed | tumor growth delay (SU-DHL10 xenografts; after the 28 day dosing, without further dosing): dose dependent tumor growth delay benefit
